This note sets out measurements from ChEMBL document CHEMBL1131670, “N-hydroxyurea and hydroxamic acid inhibitors of cyclooxygenase and 5-lipoxygenase” (Bioorg Med Chem Lett, 1999).

The target in this assay is T1, Cyclooxygenase (Rattus norvegicus, UniProt P35355+Q63921).
T1 sequence (P35355 whole entry): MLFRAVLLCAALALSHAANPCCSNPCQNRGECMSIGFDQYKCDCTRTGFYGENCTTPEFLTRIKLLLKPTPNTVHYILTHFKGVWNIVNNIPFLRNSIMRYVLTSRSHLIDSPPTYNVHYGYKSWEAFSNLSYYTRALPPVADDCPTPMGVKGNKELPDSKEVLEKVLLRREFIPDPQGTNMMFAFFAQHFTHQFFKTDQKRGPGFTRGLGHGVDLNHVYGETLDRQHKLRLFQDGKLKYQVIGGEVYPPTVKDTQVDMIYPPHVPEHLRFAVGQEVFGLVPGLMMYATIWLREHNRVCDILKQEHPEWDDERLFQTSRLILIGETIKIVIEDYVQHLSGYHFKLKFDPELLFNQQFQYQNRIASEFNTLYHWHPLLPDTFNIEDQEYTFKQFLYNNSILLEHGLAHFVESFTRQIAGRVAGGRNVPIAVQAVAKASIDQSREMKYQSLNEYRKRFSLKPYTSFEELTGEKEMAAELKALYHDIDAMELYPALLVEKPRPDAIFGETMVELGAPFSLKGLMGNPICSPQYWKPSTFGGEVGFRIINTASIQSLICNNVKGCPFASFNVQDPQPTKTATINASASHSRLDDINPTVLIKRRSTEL
T1 sequence (Q63921 whole entry): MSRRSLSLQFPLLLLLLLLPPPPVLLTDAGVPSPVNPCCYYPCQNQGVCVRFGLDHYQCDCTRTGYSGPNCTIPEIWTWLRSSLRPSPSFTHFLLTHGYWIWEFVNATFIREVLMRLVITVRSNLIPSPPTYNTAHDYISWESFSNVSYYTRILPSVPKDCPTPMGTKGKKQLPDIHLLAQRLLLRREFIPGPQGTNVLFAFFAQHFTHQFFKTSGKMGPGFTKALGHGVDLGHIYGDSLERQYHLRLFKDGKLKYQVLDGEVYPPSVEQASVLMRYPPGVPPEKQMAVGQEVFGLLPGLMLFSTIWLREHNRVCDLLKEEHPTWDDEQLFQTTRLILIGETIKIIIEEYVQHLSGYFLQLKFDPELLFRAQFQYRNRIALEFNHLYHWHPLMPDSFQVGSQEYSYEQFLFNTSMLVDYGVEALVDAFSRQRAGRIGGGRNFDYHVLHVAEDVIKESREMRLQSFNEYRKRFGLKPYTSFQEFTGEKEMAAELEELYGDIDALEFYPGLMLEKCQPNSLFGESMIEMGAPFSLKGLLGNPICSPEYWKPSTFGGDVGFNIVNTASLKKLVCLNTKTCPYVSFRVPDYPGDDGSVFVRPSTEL
Description: Inhibitory activity against cyclooxygenase (COX) in intact rat […] leukemia cells (RBL-1). In kind it is cell-based.

`COc1ccc(-n2nc(C#CCN(O)C(=O)c3ccccc3)cc2-c2ccc(C)cc2)cc1` yielded an IC50 of 930 nM.
`COc1ccc(-n2nc(C#CC(C)N(O)C(=O)N3CCCCC3)cc2-c2ccc(Cl)cc2)cc1` (configuration not stated) gave an IC50 of 690 nM. The IC50 values of the last two molecules are within 1.5-fold of each other.

In general, IC50 refers to the concentration needed to halve the response being measured. A low value points to higher potency.
